Here are results for two molecules from paper PMC9781268, “2-Arylpropionic Acid Pyrazolamides as Cannabinoid CB2 Receptor Inverse Agonists Endowed with Anti-Inflammatory Properties” (Pharmaceuticals, 2022).

The chains behind the UniProt entries cited, without tags or fusion partners.
UniProt P34972, whole entry: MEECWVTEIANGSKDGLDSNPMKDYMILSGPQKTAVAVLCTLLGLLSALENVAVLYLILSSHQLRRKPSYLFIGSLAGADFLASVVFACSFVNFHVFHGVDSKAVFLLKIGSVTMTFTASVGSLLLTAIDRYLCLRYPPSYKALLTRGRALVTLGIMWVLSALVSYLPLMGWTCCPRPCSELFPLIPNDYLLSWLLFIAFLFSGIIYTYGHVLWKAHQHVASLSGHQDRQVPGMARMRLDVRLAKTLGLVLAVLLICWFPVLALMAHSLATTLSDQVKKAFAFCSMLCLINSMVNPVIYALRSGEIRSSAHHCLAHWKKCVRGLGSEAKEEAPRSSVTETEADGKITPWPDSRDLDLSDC

Series [1] in a line: Parallel artificial membrane permeability assay, gastrointestinal (PAMPA-GI / PAMPA-GTI). Conditions: Table S1, PAMPA-GTI.
The target in the next series is human CB2 (Homo sapiens, UniProt P34972). The series is described as follows: Agonist activity, cAMP in CB2-transfected CHO cells. In kind it is cell-based. Details: host or cells: CHO cells. As to conditions: CB2-expressing CHO cells, 100 nM, 10 μM forskolin.

`O=C(O)c1cc(/N=N/c2ccc(S(=O)(=O)Nc3ccccn3)cc2)ccc1O` [Sulfassalazine, reference compound]: in series [1], the Classification result is “LOW (low intestinal permeability: <29%)” and the “Pe Exp” value was 0,45 10-6 cm/s. Further, the Fa in series [1] (absorbed fraction) is recorded as 15,5%.
Take `Cc1c(C(=O)c2cccc3ccccc23)c2cccc3c2n1[C@H](CN1CCOCC1)CO3` [WIN 55212-2, reference compound]: on human CB2, the “Effect on cAMP production by forskolin” value is “completely abolished the production of cAMP by forskolin”.
